pEC50: −log10 of the molar value. Bridge positions count the residues as written; N and C are the ends. Square brackets hold non-standard residues; d marks the D form. Peptide text beside a SMILES is read from it. Orn = NCCC[C@H](N)C(=O)O
How the values were obtained:
[1] = target: T1, human oxytocin (hOT) receptor (Homo sapiens, UniProt P30559); assay: luciferase-based transcriptional reporter assay expressing the human oxytocin (hOT) receptor, for selectivity; format: cell-based; conditions: EC50 ratio hOT/hV1a
T1 construct: expressed in transfected cells
T1 sequence (P30559 1-389): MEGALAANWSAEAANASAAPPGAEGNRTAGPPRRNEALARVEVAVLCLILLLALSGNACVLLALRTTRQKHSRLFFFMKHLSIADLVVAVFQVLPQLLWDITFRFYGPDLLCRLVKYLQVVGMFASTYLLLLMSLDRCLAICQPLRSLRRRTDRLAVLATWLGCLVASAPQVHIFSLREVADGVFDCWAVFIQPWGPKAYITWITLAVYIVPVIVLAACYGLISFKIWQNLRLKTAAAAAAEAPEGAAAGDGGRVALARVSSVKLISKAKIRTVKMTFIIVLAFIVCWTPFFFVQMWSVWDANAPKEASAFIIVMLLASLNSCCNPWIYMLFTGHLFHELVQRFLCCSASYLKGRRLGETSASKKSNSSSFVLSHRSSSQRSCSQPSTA
Description: (§1) Agonist activity of compounds on the hV1a receptor was determined in a transcriptional reporter assay by transiently transfecting a hV1a receptor expression DNA into HEK-293 cells in concert with a reporter DNA containing intracellular calcium responsive promoter elements regulating expression of firefly luciferase. See Boss, V., Talpade, D. J., Murphy, T. J. J. Biol. Chem. 1996, May 3; 271(18), 10429-10432 for further guidance on this assay. […] To determine selectivity, compounds were tested in luciferase-based transcriptional reporter assays expressing the human oxytocin (hOT) receptor. Assays for other receptors (hV2, hV1b, rat V1a and rat V2) were also conducted.
(§2) The EC50 value given is the geometric mean expressed in nanomol/L (nM). Selectivity values are given as EC50 ratios.

Amino acid sequences for entries named in this document (tags omitted).
UniProt P37288, whole entry: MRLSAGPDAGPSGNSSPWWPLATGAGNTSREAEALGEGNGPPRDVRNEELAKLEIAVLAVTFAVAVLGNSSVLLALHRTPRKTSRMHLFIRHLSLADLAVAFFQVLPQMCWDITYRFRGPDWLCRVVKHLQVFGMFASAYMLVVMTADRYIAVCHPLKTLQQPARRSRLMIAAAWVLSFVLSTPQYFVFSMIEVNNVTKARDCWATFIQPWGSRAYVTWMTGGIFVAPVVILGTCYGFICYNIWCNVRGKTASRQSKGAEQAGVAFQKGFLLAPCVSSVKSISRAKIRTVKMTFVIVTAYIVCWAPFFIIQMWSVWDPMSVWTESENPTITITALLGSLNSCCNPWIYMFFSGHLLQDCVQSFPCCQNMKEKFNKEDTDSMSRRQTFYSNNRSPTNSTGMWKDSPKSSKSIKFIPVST

[2] = test system: anaesthetised Sprague-Dawley male rats; assay: in vivo duration of action, blood pressure test in anaesthetised rats; parameters: species or system rat; conditions: ratio of decay rate of diastolic blood pressure response to standard AVP dose (0.1 nmol/kg i.v.) to decay rate for equieffective dose of compound; dibenamine-pretreated rats
hV1a receptor = target: T2, hV1a receptor (Homo sapiens, UniProt P37288); assay: hV1a receptor transcriptional reporter (luciferase) agonist assay in HEK-293 cells; format: cell-based; conditions: geometric mean; HEK-293 cells transiently transfected, 5 hours exposure, at least three independent experiments
T2 construct: expressed in transfected cells; host or cells: HEK-293 cells (transient transfection)
Description: as §1, §2

Structure (SMILES): CC[C@H](C)[C@@H]1NC(=O)[C@H](Cc2ccccc2)NC(=O)[C@@H](N)CSSC[C@@H](C(=O)N2CCC[C@H]2C(=O)N[C@@H](CCCN)C(=O)NCC(N)=O)NC(=O)[C@H](CC(N)=O)NC(=O)[C@H](CCC(N)=O)NC1=O [[Phe2, Orn8]OT, [Phe2,Orn8]OT, reference compound] (H-CFIQNCP[Orn]G-NH2; disulfide 1-6 (inferred); N-terminus and C-terminus assumed)
- selectivity hOT/hV1a [1]: 60
- in vivo duration relative to AVP [2]: 1.9
- pEC50 (hV1a receptor): 9.82

Reference: patent US8778881B2 (priority 2004, dated 2014)
